{"source": "patent US10456339B2", "about": "“Organic hydroperoxide reduction in perfumery raw materials” (FIRMENICH SA, priority 2017, dated 2019)", "key": {"[1]": {"assay": "Reduction of POV in sunflower oil using AKG-DiMeC12A", "details": "0.3062 g in 15 mL"}, "[2]": {"assay": "POV of mixed citrus oil treated with AKG-mono(DiMeC12A)", "description": "In addition to the treatment done in a model perfume as described above, a similar experiment was done in mixed citrus oil. A sample of mixed citrus oil was made by combining lime, orange, grapefruit, lemon, mandarin, tangerine, and bergamot oils, so that a variety of terpene hydroperoxides would be present in the treated mixture being tested. […] POV measurements were taken as a function of time after the addition. An untreated mixed citrus oil sample was handled similarly to the treated oil and also tested, because the POV can rise rapidly with handling of the sample (opening the bottle, agitation, etc.)."}}, "data": [{"smiles": "CCCCCCCCCCCCN(C)C.CCCCCCCCCCCCN(C)C.O=C(O)CCC(=O)C(=O)O", "note": "[AKG-DiMeC12A]", "values": [{"measurement": "solubility in sunflower oil", "setting": "[1]", "value": "did not dissolve totally"}]}, {"smiles": "CCCCCCCCCCCCN(C)C.O=C(O)CCC(=O)C(=O)O", "note": "[AKG-mono(DiMeC12A)]", "values": [{"measurement": "solubility in mixed citrus oil", "setting": "[2]; 200 mg in 20 mL", "value": "a substantial portion of it did not dissolve"}, {"measurement": "reduction in POV relative to untreated material", "setting": "[2]; mixed citrus oil, 1.0% w/v, 28.0 hours after addition", "value": 94.2, "unit": "%"}]}]}
